This passage reports Ki results from patent US5646156A, “Inhibition of eosinophil activation through A3 adenosine receptor antagonism” (Merck & Co., Inc., priority 1994, dated 1997).

Amino acid sequences for entries named in this document (tags omitted).
UniProt P0DMS8, whole entry: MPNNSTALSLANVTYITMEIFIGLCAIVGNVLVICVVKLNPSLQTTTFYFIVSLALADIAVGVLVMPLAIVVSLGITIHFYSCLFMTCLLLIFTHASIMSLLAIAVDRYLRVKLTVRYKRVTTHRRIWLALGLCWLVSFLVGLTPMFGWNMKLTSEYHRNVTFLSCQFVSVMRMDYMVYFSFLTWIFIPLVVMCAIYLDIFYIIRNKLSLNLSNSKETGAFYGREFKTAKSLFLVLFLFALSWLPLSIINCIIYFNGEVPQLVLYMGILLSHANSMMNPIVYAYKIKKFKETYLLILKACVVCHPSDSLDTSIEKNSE

SMILES strings stand for the structures.

The experiment deals with T1, human A3 adenosine receptor (Homo sapiens, UniProt P0DMS8).
T1 construct: clone HS-21a contained the complete open reading frame corresponding to the human homolog of the rat A3 adenosine receptor; expressed in transfected cells; host or cells: CHO cells, stably transfected (pCMV5-A3; pSVL and pREP vectors are also described)
The experiment is described as follows: Competition binding vs 125I-ABA, membranes of CHO cells stably expressing HS-21a (human A3 adenosine receptor). The conditions noted are these: competition with 125I-ABA. The method, then: Pellets were resuspended in 5 mM Hepes, pH 7.4/5 mM MgCl2 /0.1 mM benzamidine/0.1 mM PMSF at a protein concentration of 1-2 mg/mL and were incubated with adenosine deaminase (Boehringer Mannheim), 2 U/mL at 37° C. for 20 minutes. […] The assay was terminated by rapid filtration and three washes with ice-cold binding buffer on a Skatron harvester equipped with a receptor binding filtermat (Skatron Instruments, INC). […] Nonspecific binding was measured in the presence of 1 μM I-ABA. […] Binding data were analyzed and competition curves were constructed by use of the nonlinear regression curve fitting program Graph PAD InPlot, Version 3.0 (Graph Pad Software, San Diego).

The Ki is a measure of affinity in units of concentration, obtained from inhibition or displacement. A lower Ki goes with a stronger hold on the target. Turning to `C[C@H](Cc1ccccc1)Nc1ncnc2c1ncn2[C@@H]1O[C@H](CO)[C@@H](O)[C@H]1O` [R-PIA, (R,S)-N^6-phenyl-2-propyladenosine], the Ki was found to be 34 nM.

On to `C[C@@H](Cc1ccccc1)Nc1ncnc2c1ncn2[C@@H]1O[C@H](CO)[C@@H](O)[C@H]1O` [S-PIA, (R,S)-N^6-phenyl-2-propyladenosine], for which affinity was put at a Ki of 320 nM.
